# Laboratory results published in PubChem BioAssay AID555 (SRMLSC, 2006).
# Only a part is listed here, and it is no random draw. Active and inactive are the calls of the source.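 How the source made its calls: active means ranked among the strongest by inhibition in the single 10 µM screen, a fixed top-ranked set picked for dose follow-up; inactive means the rest, inconclusive results apart.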
# System: mevalonate kinase [Streptococcus pneumoniae D39]
# Experiment: pneumococcal mevalonate kinase activity blockers – biochemical, PK/LDH-coupled NADH absorbance, primary screen (AID 555)
# Conditions: purified MK, PK/LDH-coupled NADH absorbance 340 nm; at 10 µM; stronger effect = higher value
row,SMILES,inhibition
1,CP(=O)(Nc1ccccc1F)Oc1ccccc1 (stereo unspecified),inactive: 3%
2,O=P1(Nc2nc3ccc(Cl)cc3s2)COc2ccccc2O1 (stereo unspecified),inactive: 12%
3,COC(=O)c1cc2c(s1)N=C(c1ccccc1)N(C)P2(=O)N1CCOCC1 (stereo unspecified),inactive: 2%
4,CN(C)CCOC(=O)C(O)(c1ccccc1)C1CCCCC1 (stereo unspecified),inactive: 2%
5,O=C(OC1CN2CCC1CC2)c1cccc(Cl)c1 (stereo unspecified),inactive: 7%
6,c1nnnn1CCn1cnnn1,inactive: 6%
7,CCOP(C)(=S)SCC(=O)NC(C)(CC)C(=O)O (stereo unspecified),inactive: 7%
8,O=P(Nc1nccs1)(c1ccccc1)c1ccccc1,inactive: 0%
9,Cc1ccccc1NP(C)(=O)Nc1ccccc1C,inactive: 0%
10,CP(=O)(Nc1ccc2c(c1)OCCO2)Oc1ccccc1 (stereo unspecified),inactive: 4%
11,CCc1nc2c(n1)c1c(non1O)c1c2no[n+]1[O-],inactive: 0%
12,CP(=O)(Oc1ccccc1)N1CCOC1=O (stereo unspecified),inactive: 8%
13,COc1ccccc1OP(C)(=O)Nc1c(C)n(C)n(-c2ccccc2)c1=O (stereo unspecified),inactive: 7%
14,COc1ccccc1OP(C)(=O)Nc1ccc(C)c(C)c1 (stereo unspecified),inactive: 8%
15,Cc1nc2ccc3ccccc3c2o1.O=[N+]([O-])c1cc([N+](=O)[O-])c(O)c([N+](=O)[O-])c1,inactive: 14%
16,CP(=O)(Nc1ccccn1)Oc1ccccc1 (stereo unspecified),inactive: 4%
17,Cc1c2non([O-])c-2c(C)[n+](=O)[n+]1[O-],inactive: 6%
18,O=C(OC1CN2CCC1CC2)C12CC3CC(CC(C3)C1)C2 (stereo unspecified),inactive: 8%

row,SMILES,inhibition
1,Cc1ccc(NP(C)(=O)Oc2ccccc2)c(C)c1 (stereo unspecified),inactive: 6%
2,COc1ccccc1OP(C)(=O)Nc1ccc(C)cc1 (stereo unspecified),inactive: 7%
3,CP(=S)(Nn1cnnc1)Oc1ccccc1 (stereo unspecified),inactive: 4%
4,CP(=O)(NC(=O)Nc1ccccc1)Oc1ccccc1 (stereo unspecified),inactive: 11%
5,O=C(COc1ccccc1)OC1CN2CCC1CC2 (stereo unspecified),inactive: 2%
6,COP1(=S)c2c(C)nn(CCC#N)c2N=C(c2ccc(F)cc2)N1C (stereo unspecified),inactive: 0%
7,CCOP(C)(=S)SCC(=O)NC(C)C(=O)O (stereo unspecified),inactive: 9%
8,Clc1n[nH]nc1-c1nn[nH][15n]1,inactive: 0%
9,O=P1(Nc2ccccn2)COc2ccccc2OC1,inactive: 10%
10,Cc1nc2ccc3ccccc3c2s1.O=[N+]([O-])c1cc([N+](=O)[O-])c(O)c([N+](=O)[O-])c1,inactive: 12%
11,Cc1nn(-c2ccccc2)c2c1P(=O)(N1CCOCC1)N(C)C(c1ccccc1)=N2 (stereo unspecified),inactive: 9%
12,Cc1ccc(OCC(=O)OC2CN3CCC2CC3)cc1 (stereo unspecified),inactive: 2%
13,O=P1(Nc2ccc(Br)cn2)COc2ccccc2OC1,inactive: 5%
14,O=P1(Nc2ncccn2)COc2ccccc2OC1,inactive: 14%
15,CCOP1(=S)c2c(C)nn(CCC#N)c2N=C(c2ccccc2F)N1C (stereo unspecified),inactive: 1%
16,CCOP1(=S)c2c(C)nn(CCC#N)c2N=C(c2ccc(F)cc2)N1C (stereo unspecified),inactive: 4%
17,Cc1cccc(OCC(=O)OC2CN3CCC2CC3)c1 (stereo unspecified),inactive: 4%
18,Cc1ccc(C)c(NP(C)(=O)Oc2ccccc2)c1 (stereo unspecified),inactive: 5%
